This note sets out measurements from US20240092926A1 (ONCORESPONSE, published 2024).

By UniProt entry, the sequences of proteins in these tests, tags left out. Residues count along the entry.
UniProt Q86VB7, 42-1050 limits assumed: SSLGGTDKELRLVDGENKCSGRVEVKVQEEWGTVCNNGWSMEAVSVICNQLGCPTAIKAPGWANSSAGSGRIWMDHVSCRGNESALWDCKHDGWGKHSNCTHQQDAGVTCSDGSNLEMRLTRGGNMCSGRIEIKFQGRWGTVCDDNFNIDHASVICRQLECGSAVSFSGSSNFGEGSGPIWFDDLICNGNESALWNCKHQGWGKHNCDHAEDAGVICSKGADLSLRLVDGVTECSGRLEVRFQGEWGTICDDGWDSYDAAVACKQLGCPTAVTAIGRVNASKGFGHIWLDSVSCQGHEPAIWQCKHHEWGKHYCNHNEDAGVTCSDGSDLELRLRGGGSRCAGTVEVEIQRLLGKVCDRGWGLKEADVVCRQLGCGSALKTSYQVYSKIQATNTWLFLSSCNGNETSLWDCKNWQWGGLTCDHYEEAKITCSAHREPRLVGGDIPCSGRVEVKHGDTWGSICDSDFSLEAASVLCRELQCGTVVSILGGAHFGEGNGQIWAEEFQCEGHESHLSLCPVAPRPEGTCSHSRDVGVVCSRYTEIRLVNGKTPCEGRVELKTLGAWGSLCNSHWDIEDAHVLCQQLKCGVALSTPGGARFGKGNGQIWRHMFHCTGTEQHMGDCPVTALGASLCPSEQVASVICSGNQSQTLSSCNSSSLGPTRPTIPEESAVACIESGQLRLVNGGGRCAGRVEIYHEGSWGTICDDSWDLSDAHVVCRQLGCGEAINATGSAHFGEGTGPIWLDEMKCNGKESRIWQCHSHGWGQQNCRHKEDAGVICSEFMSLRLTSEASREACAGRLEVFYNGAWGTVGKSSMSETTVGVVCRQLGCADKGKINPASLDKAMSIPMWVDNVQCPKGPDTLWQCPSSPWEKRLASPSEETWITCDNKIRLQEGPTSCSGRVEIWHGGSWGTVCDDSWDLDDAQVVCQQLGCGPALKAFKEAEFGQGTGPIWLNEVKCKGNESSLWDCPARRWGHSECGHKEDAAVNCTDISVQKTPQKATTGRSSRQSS
UniProt Q86VB7, 46-1050 limits assumed: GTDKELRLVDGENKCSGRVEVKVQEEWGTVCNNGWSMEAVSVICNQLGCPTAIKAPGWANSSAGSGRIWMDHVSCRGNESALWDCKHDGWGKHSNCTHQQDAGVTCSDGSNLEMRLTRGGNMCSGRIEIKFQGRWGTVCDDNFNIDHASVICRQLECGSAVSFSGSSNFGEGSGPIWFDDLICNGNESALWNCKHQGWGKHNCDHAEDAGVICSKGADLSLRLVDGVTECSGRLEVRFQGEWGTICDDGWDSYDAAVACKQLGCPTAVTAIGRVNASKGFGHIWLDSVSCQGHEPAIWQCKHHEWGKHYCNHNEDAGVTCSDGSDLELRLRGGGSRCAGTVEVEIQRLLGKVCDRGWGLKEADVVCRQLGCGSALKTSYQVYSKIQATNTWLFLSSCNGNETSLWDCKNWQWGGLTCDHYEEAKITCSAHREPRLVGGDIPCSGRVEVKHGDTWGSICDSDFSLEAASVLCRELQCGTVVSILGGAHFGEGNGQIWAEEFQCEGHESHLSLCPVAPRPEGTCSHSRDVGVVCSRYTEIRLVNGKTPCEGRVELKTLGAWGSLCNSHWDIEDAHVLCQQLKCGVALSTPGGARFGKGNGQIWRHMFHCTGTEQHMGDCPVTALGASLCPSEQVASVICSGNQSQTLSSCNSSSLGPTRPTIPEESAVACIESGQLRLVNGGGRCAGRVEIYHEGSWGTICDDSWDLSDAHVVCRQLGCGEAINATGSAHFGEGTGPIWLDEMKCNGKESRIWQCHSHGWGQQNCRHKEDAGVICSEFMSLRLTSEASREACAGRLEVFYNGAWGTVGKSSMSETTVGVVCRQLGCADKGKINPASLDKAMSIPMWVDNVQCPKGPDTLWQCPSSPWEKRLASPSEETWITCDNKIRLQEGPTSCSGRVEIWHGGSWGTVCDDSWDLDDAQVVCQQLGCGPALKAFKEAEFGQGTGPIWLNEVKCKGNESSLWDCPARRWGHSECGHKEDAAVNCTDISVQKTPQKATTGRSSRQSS

The target in test [1] is T1, Biotin-labeled human CD163 (human, UniProt Q86VB7 42-1050, limits assumed, biotin-labeled (sites not given)).
T1 construct: Biotinylated form of the human CD163 antigen, immobilised on SA biosensors for BLI; also called b-huCD163; Human CD163 Protein (biotinylated)
Nature of the test: BLI (Octet RED96), b-huCD163 on SA biosensor, Ab at 100/150/200/250 nM. The method, then:
Samples were prepared as follows; Dilute antigen b-huCD163 to 2 pg/mL with PBS buffer; Dilute AB101 parental Ab to a series of concentration (100/150/200/250 nM) with PBST buffer. Results are described in Table 5:
The SA sensors were placed in the PBS buffer for 15 minutes. Different solutions were added to a 96-well plate according to the following orders, with 200 μL per well.
Background: In BLI a coated tip is dipped into the sample, and binding shifts an interference pattern.

In test [2] the target is T2, His-tagged recombinant human CD163 (R&D Systems, No. 1607-CD-050) (human, UniProt Q86VB7 46-1050, limits assumed).
T2 construct: Bought protein; also called recombinant CD163 protein; huCD163; not shown: His tag
Nature of the test: ELISA, plate coated with His-tagged recombinant human CD163 at 5 µg/mL, detection with anti-human IgG F(ab')2-HRP, A450; log axis in nM. The procedure: (§1) CD163 variant antibody binding to His-tagged recombinant human CD163 (R&D Systems, No. 1607-CD-050) protein was determined using ELISA. Recombinant protein was diluted in PBS to 5 μg/mL and added to 384-well high-binding ELISA plates (Greiner Bio-One, No. 781061) at 25 μL per well and incubated at 4° C. overnight. The plates were washed three times with PBS, using a BioTek ELx405 Select microplate washer (wash program ELISA_384_PBS_3×_wash) and then blocked with 90 μL/well of blocking buffer (2% nonfat, dry milk/PBS+0.05% Tween 20) for 1 hour at RT.
(§2) After blocking, 25 μL per well of primary antibodies were added to the plates and incubated for 1 hour at RT. The isotype control was a proprietary mAb, in human IgG1 frameworks, with known specificity. After primary antibody binding, plates were washed three times with PBS using the EL405× (wash program ELISA_384_PBS 3×_wash). The secondary antibody was a goat anti-human IgG F(ab′)₂ HRP (Jackson Immunoresearch, No. 109-035-097). Secondary antibody was diluted to 1:2500 in 2% nonfat, dry milk/PBS, and 25 μL per well was added to the wells and incubated at RT for 1 hour. The plates were washed four times with PBS, using the EL405× (wash program ELISA_384_PBS_4× wash). […] After development, the reaction was stopped by adding 25 μL per well of 0.3 M HCl and plates were read using a SpectraMax M5e instrument at 450 nm.
A general note: In an ELISA, binding on a coated surface is turned into a signal by an enzyme label.

Test [3] concerns the target T2, His-tagged recombinant human CD163 (R&D …). Described as above. The procedure: as §1, §2
This is another data set of the same source.

Test [4] has the same target. Described as above. The procedure: as §1, §2
This is another data set of the same source.

Test [5] addresses T1, Biotin-labeled human CD163. As to the kind of experiment: BLI (Octet RED96), b-huCD163 on SA biosensor, one Ab concentration 50.0 nM.
Test [6] deals with T2, His-tagged recombinant human CD163 (R&D …). Nature of the test: ELISA, plate coated with His-tagged recombinant human CD163 at 5 µg/mL, detection with anti-human IgG F(ab')2-HRP, A450; log axis in nM. The method, then: as §1, §2
The source holds these as a separate data set.

Test [7] has the same target. The description is as above. The method, then:
as §1, §2
The source holds these as a separate data set.

Test [8] shares this target. Described as above. The procedure: as §1, §2
This is another data set of the same source.

Where two headings read alike, the source gives them in different places.

B1: AB101 parental antibody (antibody, human IgG1)
VH: EVQLVESGGGVVQPGRSLRLSCAASGFTFSSYAMHWVRQAPGKGLEWVAVISYDGSNKYYADSVKGRFTISRDNSKNTLYLQMNSLRAEDTAVYYCARENVRPYYDFWSGYYSEYYYYGMDVWGQGTTVTVSSASTKGPSVFPLAPSSKSTSGGTAALGCLVKDYF
VL: not shown
As usually defined, the Kd is the constant that tells how readily two partners part at equilibrium. A higher Kd goes with weaker binding. For orientation: koff means the first-order rate constant of dissociation. Usually kon stands for the rate constant with which the complex forms. A lower kon goes with slower complex formation. The EC50 (read off the curve) is the concentration giving half of the maximal effect. In the case of B1, the Kd in test [1] came out at 661 nM; in test [5], 878 nM. Moreover, the dissociation rate constant (koff) in test [1] was 0.0316 s⁻¹; in test [5], 0.0296 s⁻¹. The on-rate constant (kon) in test [1] amounted to 47800 M⁻¹ s⁻¹; in test [5], 33700 M⁻¹ s⁻¹. The “EC50 (read off the curve)” value in test [2], in test [3], in test [4], in test [6], in test [7] and in test [8] was approximately 0.08 nM each time.
